Measured values taken from US5401724A, “Therapeutic treatment of chronic myelogenous leukemia by administration of 2-chloro-2'-deoxy adenosine” (priority 1994, dated 1995).

How the values were obtained:
adenosine deaminase = conditions: cited from earlier work
[1] = system: total circulating peripheral blood granulocytes; assay: Effect of 2-CdA on total circulating peripheral blood granulocytes in a patient with CML (Example 2); assay type: in vivo, human; conditions: second course, day 17
Procedure: Each course was repeated every 28 days until the maximum hematological remission response of the treatment was achieved. The median age of the patients was 60 years, with a range of 52 to 75 years. There were 3 males and 2 females. A median of 2 courses of treatment was administered, with a range of 1 to 4 courses.

neutrophils = conditions: 0.1 mg/kg per day over 7 days; cutaneous T cell lymphoma; cited from earlier work

For `Nc1nc(Cl)nc2c1ncn2[C@H]1C[C@H](O)[C@@H](CO)O1` [2-CdA, 2-chloro-2'-deoxyadenosine], the “resistance to adenosine deaminase” value (adenosine deaminase) is listed as “resistant to adenosine deaminase”, the “decrease relative to the granulocyte count at day zero” value [1] is listed as “over 98%” and the “sensitivity of neutrophils relative to monocytes and lymphocytes” value (neutrophils) is listed as “more resistant to 2-CdA than their monocytes and lymphocytes”.
